The numbers were not newly measured in patent US20220192984A1, “PHARMACEUTICAL COMPOSITIONS COMPRISING OTIC THERAPEUTIC AGENTS AND RELATED METHODS” (Frequency Therapeutics, Inc., priority 2018, published 2022), which cites them from elsewhere.

The conditions of this data set: Table 19, remark in Human Dosage column; cited from earlier work.

Consider `Cc1cc(C)c(CNC(=O)c2cc(Br)c3c(c2C)O[C@@](C)([C@H]2CC[C@H](N(C)C)CC2)O3)c(=O)[nH]1`, for which the oral bio. entry is listed as “poor oral”.
